Measured values: US20100292337A1, “Polar Hydrophilic Prodrugs of Amphetamine and Other Stimulants and Processes for Making and Using the Same” (priority 2007, published 2010)

Assay: Example 12: oral pharmacokinetic study of hArg-Amp vs Lys-Amp, plasma d-amphetamine by ELISA
Settings: oral gavage, rat, […] d-amphetamine freebase equivalent; released d-amphetamine

`C[C@@H](Cc1ccccc1)NC(=O)[C@@H](N)CCCCN=C(N)N.Cl.Cl` [hArg-Amp, l-homoarginine-d-amphetamine dihydrochloride] gave a Tmax of 4 h.
